Our source for the LD50 values is ChEMBL document CHEMBL3045166, “Structure-function studies of omega-atracotoxin, a potent antagonist of insect voltage-gated calcium channels” (1999).

For this test, the system named is Acheta domesticus. The test is described as follows: Insecticidal activity against Acheta domesticus assessed as death compound treated lateroventral thoracic injections between legs 2 and 3 using a 29-gauge needle measured after 48 hr.
In the case of `CC[C@H](C)[C@H](NC[C@@H](N)CS)C(=O)N1CCC[C@H]1C(=O)N[C@@H](CO)C(=O)NCC(=O)N[C@@H](CCC(N)=O)C(=O)N1CCC[C@H]1C(=O)N[C@@H](CS)C(=O)N1CCC[C@H]1C(=O)N[C@@H](Cc1ccc(O)cc1)C(=O)N[C@@H](CC(N)=O)C(=O)N[C@@H](CCC(=O)O)C(=O)N[C@@H](CC(N)=O)C(=O)N[C@@H](CS)C(=O)N[C@@H](CS)C(=O)N[C@@H](CO)C(=O)N[C@@H](CCC(N)=O)C(=O)N[C@@H](CO)C(=O)N[C@@H](CS)C(=O)N[C@H](C(=O)N[C@@H](Cc1ccccc1)C(=O)N[C@@H](CCCCN)C(=O)N[C@@H](CCC(=O)O)C(=O)N[C@@H](CC(N)=O)C(=O)N[C@@H](CCC(=O)O)C(=O)N[C@@H](CC(N)=O)C(=O)NCC(=O)N[C@@H](CC(N)=O)C(=O)N[C@H](C(=O)N[C@H](C(=O)N[C@@H](CCCCN)C(=O)N[C@@H](CCCNC(=N)N)C(=O)N[C@@H](CS)C(=O)N[C@@H](CC(=O)O)C(=O)O)C(C)C)[C@@H](C)O)[C@@H](C)O`, the LD50 came to 1470 pmol/g. Consider `CC[C@H](C)[C@H](NC(=O)[C@H](CS)NC(=O)[C@@H](NC(=O)[C@H](CO)NC(=O)[C@@H](N)CO)[C@@H](C)O)C(=O)N1CCC[C@H]1C(=O)N[C@@H](CO)C(=O)NCC(=O)N[C@@H](CCC(N)=O)C(=O)N1CCC[C@H]1C(=O)N[C@@H](CS)C(=O)N1CCC[C@H]1C(=O)N[C@@H](Cc1ccc(O)cc1)C(=O)N[C@@H](CC(N)=O)C(=O)N[C@@H](CCC(=O)O)C(=O)N[C@@H](CC(N)=O)C(=O)N[C@@H](CS)C(=O)N[C@@H](CS)C(=O)N[C@@H](CO)C(=O)N[C@@H](CCC(N)=O)C(=O)N[C@@H](CO)C(=O)N[C@@H](CS)C(=O)N[C@H](C(=O)N[C@@H](Cc1ccc(O)cc1)C(=O)N[C@@H](CCCCN)C(=O)N[C@@H](CCC(=O)O)C(=O)N[C@@H](CC(N)=O)C(=O)N[C@@H](CCC(=O)O)C(=O)N[C@@H](CC(N)=O)C(=O)NCC(=O)N[C@@H](CC(N)=O)C(=O)N[C@H](C(=O)N[C@H](C(=O)N[C@@H](CCCCN)C(=O)N[C@@H](CCCNC(=N)N)C(=O)N[C@@H](CS)C(=O)N[C@@H](CC(=O)O)C(=O)O)C(C)C)[C@@H](C)O)[C@@H](C)O`, for which the LD50 turned out to be 224 pmol/g. On to `CC[C@H](C)[C@H](NC(=O)[C@H](CS)NC(=O)[C@@H](N)[C@@H](C)O)C(=O)N1CCC[C@H]1C(=O)N[C@@H](CO)C(=O)NCC(=O)N[C@@H](CCC(N)=O)C(=O)N1CCC[C@H]1C(=O)N[C@@H](CS)C(=O)N1CCC[C@H]1C(=O)N[C@@H](Cc1ccc(O)cc1)C(=O)N[C@@H](CC(N)=O)C(=O)N[C@@H](CCC(=O)O)C(=O)N[C@@H](CC(N)=O)C(=O)N[C@@H](CS)C(=O)N[C@@H](CS)C(=O)N[C@@H](CO)C(=O)N[C@@H](CCC(N)=O)C(=O)N[C@@H](CO)C(=O)N[C@@H](CS)C(=O)N[C@H](C(=O)N[C@@H](Cc1ccccc1)C(=O)N[C@@H](CCCCN)C(=O)N[C@@H](CCC(=O)O)C(=O)N[C@@H](CC(N)=O)C(=O)N[C@@H](CCC(=O)O)C(=O)N[C@@H](CC(N)=O)C(=O)NCC(=O)N[C@@H](CC(N)=O)C(=O)N[C@H](C(=O)N[C@H](C(=O)N[C@@H](CCCCN)C(=O)N[C@@H](CCCNC(=N)N)C(=O)N[C@@H](CS)C(=O)N[C@@H](CC(=O)O)C(=O)O)C(C)C)[C@@H](C)O)[C@@H](C)O`, for which the LD50 amounted to 1550 pmol/g.
